{"sequences": {"note": "Amino acid sequences for entries named in this document (tags omitted).", "UniProt P51532, whole entry": "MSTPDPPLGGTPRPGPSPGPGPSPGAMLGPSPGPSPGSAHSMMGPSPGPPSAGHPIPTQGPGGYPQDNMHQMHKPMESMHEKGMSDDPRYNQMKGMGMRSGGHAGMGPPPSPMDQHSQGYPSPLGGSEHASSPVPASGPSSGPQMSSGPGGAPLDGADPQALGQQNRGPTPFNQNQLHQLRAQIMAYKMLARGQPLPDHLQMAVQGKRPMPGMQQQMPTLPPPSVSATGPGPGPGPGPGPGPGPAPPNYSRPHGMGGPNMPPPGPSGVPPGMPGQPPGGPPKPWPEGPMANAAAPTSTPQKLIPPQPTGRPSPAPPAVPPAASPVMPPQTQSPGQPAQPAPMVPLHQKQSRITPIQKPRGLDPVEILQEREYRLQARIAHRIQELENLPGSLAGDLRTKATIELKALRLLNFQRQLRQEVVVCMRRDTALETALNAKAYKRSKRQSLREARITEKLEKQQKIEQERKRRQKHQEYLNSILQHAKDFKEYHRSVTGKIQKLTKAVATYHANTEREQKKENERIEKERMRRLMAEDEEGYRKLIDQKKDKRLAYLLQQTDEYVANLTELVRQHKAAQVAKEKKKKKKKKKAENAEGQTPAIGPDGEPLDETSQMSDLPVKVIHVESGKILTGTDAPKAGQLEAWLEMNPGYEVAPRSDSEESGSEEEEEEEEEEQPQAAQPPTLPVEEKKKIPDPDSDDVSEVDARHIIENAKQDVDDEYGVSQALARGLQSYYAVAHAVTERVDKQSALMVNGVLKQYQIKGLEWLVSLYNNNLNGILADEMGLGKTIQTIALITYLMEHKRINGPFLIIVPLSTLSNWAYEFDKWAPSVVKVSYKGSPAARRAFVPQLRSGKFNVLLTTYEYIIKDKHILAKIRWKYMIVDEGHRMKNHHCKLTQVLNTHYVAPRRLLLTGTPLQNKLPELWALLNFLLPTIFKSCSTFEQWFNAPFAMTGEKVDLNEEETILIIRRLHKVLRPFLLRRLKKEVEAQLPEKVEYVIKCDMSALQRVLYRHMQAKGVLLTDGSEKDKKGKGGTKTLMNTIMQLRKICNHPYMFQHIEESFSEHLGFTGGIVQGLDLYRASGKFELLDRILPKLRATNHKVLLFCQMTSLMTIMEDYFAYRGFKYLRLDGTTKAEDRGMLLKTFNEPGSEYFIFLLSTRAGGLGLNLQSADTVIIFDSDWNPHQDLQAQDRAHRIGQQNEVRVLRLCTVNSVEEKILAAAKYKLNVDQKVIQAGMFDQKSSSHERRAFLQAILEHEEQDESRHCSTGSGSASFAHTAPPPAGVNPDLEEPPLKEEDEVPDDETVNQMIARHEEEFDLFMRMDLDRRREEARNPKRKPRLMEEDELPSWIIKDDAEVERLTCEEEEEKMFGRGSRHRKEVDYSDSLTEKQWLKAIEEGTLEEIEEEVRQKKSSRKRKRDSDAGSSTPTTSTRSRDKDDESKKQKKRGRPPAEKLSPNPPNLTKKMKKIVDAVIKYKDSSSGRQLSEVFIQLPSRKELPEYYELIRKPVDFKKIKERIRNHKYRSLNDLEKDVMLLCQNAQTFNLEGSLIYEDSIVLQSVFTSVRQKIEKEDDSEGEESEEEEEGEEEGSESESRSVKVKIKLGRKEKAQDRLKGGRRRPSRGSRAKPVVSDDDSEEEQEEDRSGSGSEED"}, "source": "patent US12187719B2", "about": "“Proteolysis targeting chimera (PROTACS) as degraders of SMARCA2 and /or SMARCA4” (Boehringer Ingelheim International GmbH, priority 2018, dated 2025)", "target": "T1, SMARCA4 (Homo sapiens, UniProt P51532)", "T1 construct": "endogenous in cells; host or cells: A549 (NSCLC) cells with SMARCA4 mutation corrected to wild type", "assay": "Protein degradation assay in A549 cells, SMARCA4 levels by WES capillary electrophoresis", "format": "cell-based", "settings": "A549 (NSCLC) cells with SMARCA4 mutation corrected to wild type; 18 h incubation; concentration at which half maximal degradation is achieved; normalised to GAPDH", "experimental": "For the protein degradation assay, A549 (NSCLC) cells are used in which the inactivating SMARCA4 mutation has been corrected to wild type, such that the cells express both SMARCA2 and SMARCA4. 35000 cells in F12K Medium +10% FBS (100 μL/well) are seeded in a Greiner 96 well F-bottom plate and incubated at 37° C. overnight. Compounds are added from DMSO stock solution using ECHO Access™ workstation or HP D300 Digital Dispenser and cells are incubated at 37° C. for 18 h. Medium is removed, cells are washed with PBS, PBS is removed and 30 μL cold Lysis Buffer (1% Triton, 350 mM KCl, 10 mM Tris, Halt Phosphatase-Protease Inhibitors, 10 mM DTT, Benzonase 0.5 μL/mL) is added to each well. Cells are lysed for 20 min at 4° C. on a bioshake at 800 rpm before insoluble debris is pelleted by centrifugation for 20 min at 4000 rpm at 4° C. The supernatant is transferred to a fresh PCR plate. SMARCA2 levels are determined on a WES capillary electrophoresis instrument (Proteinsimple) using rabbit anti-SMARCA2 antibody (1:25, Sigma #HPA029981), SMARCA4 antibody (CellSignaling #49360, 1:25), PBRM1 antibody (Bethyl #A301-591A-M, 1:40) and anti-GAPDH antibody (1:100, Abcam #ab9485) for normalization.\nThe compounds 1-1 to 1-18 according to the invention have been tested in the above described assay. […]", "data": [{"smiles": "Cc1ncsc1-c1ccc(CNC(=O)[C@@H]2C[C@@H](O)CN2C(=O)[C@@H](NC(=O)C2(F)CC2)C(C)(C)C)c(OCCOCCOCCN2CCN(c3cc(-c4ccccc4O)nnc3N)CC2)c1", "note": "[Compound I-5]", "values": [{"measurement": "DC50", "value": 1930, "unit": "nM"}]}]}
